From patent US8877791B2, “Inhibitors of pyruvate kinase and methods of treating disease” (Beth Israel Deaconess Medical Center, Inc., priority 2006, dated 2014)
pIC50: −log10 of the molar value.

Chains of the proteins cited; added tags and fusions are not shown. A line that says so, or that is headed by a name, gives the form on record, which may keep a tag or linker.
UniProt P14618, whole entry: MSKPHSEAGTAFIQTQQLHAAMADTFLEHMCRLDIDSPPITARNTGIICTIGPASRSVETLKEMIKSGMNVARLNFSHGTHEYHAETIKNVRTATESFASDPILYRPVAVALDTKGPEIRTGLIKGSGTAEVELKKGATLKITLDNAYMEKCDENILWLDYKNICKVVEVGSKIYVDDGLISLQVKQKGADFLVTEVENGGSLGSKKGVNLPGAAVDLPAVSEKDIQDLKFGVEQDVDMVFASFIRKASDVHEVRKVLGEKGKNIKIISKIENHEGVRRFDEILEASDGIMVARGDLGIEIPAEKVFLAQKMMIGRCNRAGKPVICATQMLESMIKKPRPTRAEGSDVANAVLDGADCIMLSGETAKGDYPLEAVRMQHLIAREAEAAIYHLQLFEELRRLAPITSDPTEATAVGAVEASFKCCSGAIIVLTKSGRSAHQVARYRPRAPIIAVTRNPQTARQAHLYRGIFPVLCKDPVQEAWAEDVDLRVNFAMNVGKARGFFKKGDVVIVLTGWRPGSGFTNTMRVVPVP
UniProt P14618, with tags, fused parts or gaps limits assumed: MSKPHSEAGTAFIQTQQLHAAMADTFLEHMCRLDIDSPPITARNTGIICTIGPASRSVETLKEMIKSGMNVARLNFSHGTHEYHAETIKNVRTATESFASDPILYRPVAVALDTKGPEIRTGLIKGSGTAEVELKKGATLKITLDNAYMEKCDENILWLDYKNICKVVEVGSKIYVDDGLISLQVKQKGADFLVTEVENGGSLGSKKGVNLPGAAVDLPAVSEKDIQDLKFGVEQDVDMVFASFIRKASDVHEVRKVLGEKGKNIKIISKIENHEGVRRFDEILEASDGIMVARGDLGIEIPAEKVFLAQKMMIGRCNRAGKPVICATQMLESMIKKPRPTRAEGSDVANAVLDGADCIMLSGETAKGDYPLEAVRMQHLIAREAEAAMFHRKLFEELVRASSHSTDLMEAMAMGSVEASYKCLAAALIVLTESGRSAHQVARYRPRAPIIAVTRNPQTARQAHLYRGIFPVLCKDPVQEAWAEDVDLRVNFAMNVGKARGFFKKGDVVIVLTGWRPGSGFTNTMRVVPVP

Columns and labels:
[1] = test system: H1299 and A549 human lung cancer cells; experiment: Killing of human lung cancer cell lines by increasing concentrations of compound; conditions: read-out: IC50 in vivo, concentration required to kill >90% of the cells
Protocol: (§1) For in vitro studies, recombinant pyruvate kinase was incubated with the compound indicated (Table 2) and the activity of the enzyme assessed, as described in Example 4. To determine the IC50, enzyme activity was determined at various concentrations of inhibitor. The percentages shown in Table 2 reflect the inhibition of enzyme activity relative to the absence of compound when the enzyme is incubated with 50 μM of the compound indicated. For in vivo studies, human lung cancer cell lines were incubated with increasing concentrations of the compound indicated and the concentration required to kill >90% of the cells is reported.
Human lung cancer cells were exposed to increasing concentrations of candidate compounds A2 and D1. The toxicity of the compounds was measured by determining the percentage of surviving cells. Cells were mock-treated with DMSO as a control. […] depicts the toxicity of compounds A2 (FIG. 8a) and D1 (FIG. 8b) in H1299 cells compared to mock treatment with DMSO.

[2] = target: PKM1 (Homo sapiens (Human), UniProt P14618); experiment: Recombinant PKM1 enzyme activity (same screening method); conditions: screening concentration estimated at 50 μM
Protocol: (§2) Recombinant PKM1 and PKM2 were expressed in E. coli and purified using an Ni-NTA column according to standard protocols. PKM2 ([…]) was mixed with the following components: 0.6 mM ADP, 0.5 mM phosphoenolpyruvate, 200 μM NADH, 1-4 units of lactate dehydrogenase, 50 μM FBP, 1 mM DTT, 0.02% Brij 35, 5% glycerol, and the test molecule with a final DMSO concentration of 5%. A control reaction lacked the test molecule. The test molecules used in this example were selected from a library containing over 100,000 compounds.
This same screening method was then used to retest candidate molecules for the inhibition of PKM1 to determine which candidate compounds are active against PKM2, but not PKM1.
as §1

[3] = target: PKM2 (Homo sapiens (Human), UniProt P14618); experiment: Recombinant PKM2 enzyme activity in the presence of FBP (LDH-coupled NADH consumption); conditions: screening concentration estimated at 50 μM
Protocol: as §2
Primary screening was performed using PKM2 in the presence of FBP. […] Activity was measured by monitoring the concentration of NADH. Pyruvate, produced by the enzymatic activity of pyruvate kinase, is converted into lactate by lactate dehydrogenase, which requires the consumption of NADH (NADH→NAD^+). Thus, the activity of PKM2 was indirectly measured by monitoring the consumption of NADH through fluorescence assays. Additionally, the activity of the PKM2 enzyme was directly monitored by measuring the production of ATP, as ATP is produced when phosphoenolpyruvate is converted to pyruvate by PKM2.
For in vitro studies, recombinant pyruvate kinase was incubated with the compound indicated (Table 2) and the activity of the enzyme assessed, as described in Example 4. To determine the IC50, enzyme activity was determined at various concentrations of inhibitor. […]

[4] = test system: FL5.12 cells; experiment: Toxicity in FL5.12 cells with and without growth factor (IL-3); conditions: twenty hours of treatment, presence and absence of IL-3
Protocol: Mouse pre-lymphocyte cells (FL5.12 cells) were treated with candidate compounds A2 (FIG. 9a) and D1 (FIG. 9b) for twenty hours in the presence and absence of growth factor (IL-3).

| Compound | pIC50 [1] | PKM1 inhibition of enzyme activity relative to the absence of compound [2] [%] | PKM2 inhibition of enzyme activity relative to the absence of compound [3] [%] | Toxicity in FL5.12 cells, effect of growth factor withdrawal [4] |
| --- | --- | --- | --- | --- |
| CSc1ccc(C(=O)O)s1 | 4.05 | – | – | – |
| Cc1ccc(C)n1-c1ccc(Cl)c(C(=O)O)c1 | < 4.00 | 0 | 50 | – |
| Cc1ccc(C)n1-c1ccc(O)c(C(=O)O)c1 | 3.60 | 15 | 50 | Growth factor withdrawal increases the toxicity |
